Target: PHF8 (Homo sapiens (Human), UniProt Q9UPP1)
Assay: PHF8 in vitro enzyme inhibition assay (TR-FRET)
Format: biochemical
Settings: 3 nM PHF8, H3K9me1-biotin peptide
Text: This assay determines the ability of a test compound to inhibit FBXL11, FBXL10, and PHF8 demethylase activity. Baculovirus expressed FBXL11 (GenBank Accession #NM_012308, AA1-1162) was purchased from BPS Bioscience (Cat#50102). Baculovirus expressed FBXL10 (GenBank Accession #NM_032590, AA 1-650) was purchased from BPS Bioscience (Cat #50120). Baculovirus expressed PHF8 (GenBank Accession NP_055922.1) was purchased from Active Motif (Cat#31435).
The ability of test compounds to inhibit the activity of PHF8 was determined in 384-well plate format under the following reaction conditions: 3 nM PHF8, 200 nM H3K9me1-biotin labeled peptide (Anaspec cat #64358), 0.5 μM alpha-ketoglutaric acid in assay buffer of 50 mM HEPES, pH7.3, 0.005% Brij35, 0.5 mM TCEP, 0.2 mg/ml BSA, 50 μM sodium L-ascorbate, and 5 μM ammonium iron(II) sulfate. Reaction product was determined quantitatively by TR-FRET after the addition of detection reagent Phycolink Streptavidin-allophycocyanin (Prozyme) and Europium-anti-unmodified-histone H3 lysine 9/lysine27 (H3K9/K27) antibody (PerkinElmer) in the presence of 5 mM EDTA in LANCE detection buffer (PerkinElmer) at a final concentration of 25 nM and 0.5 nM, respectively. […]
The ability of the compounds disclosed herein to inhibit demethylase activity was quantified and the respective IC50 value was determined. […]

Sequences of proteins named here, by UniProt entry; tags and fusion partners are left off. Residues count along the entry.
UniProt Q9UPP1, 37-1060: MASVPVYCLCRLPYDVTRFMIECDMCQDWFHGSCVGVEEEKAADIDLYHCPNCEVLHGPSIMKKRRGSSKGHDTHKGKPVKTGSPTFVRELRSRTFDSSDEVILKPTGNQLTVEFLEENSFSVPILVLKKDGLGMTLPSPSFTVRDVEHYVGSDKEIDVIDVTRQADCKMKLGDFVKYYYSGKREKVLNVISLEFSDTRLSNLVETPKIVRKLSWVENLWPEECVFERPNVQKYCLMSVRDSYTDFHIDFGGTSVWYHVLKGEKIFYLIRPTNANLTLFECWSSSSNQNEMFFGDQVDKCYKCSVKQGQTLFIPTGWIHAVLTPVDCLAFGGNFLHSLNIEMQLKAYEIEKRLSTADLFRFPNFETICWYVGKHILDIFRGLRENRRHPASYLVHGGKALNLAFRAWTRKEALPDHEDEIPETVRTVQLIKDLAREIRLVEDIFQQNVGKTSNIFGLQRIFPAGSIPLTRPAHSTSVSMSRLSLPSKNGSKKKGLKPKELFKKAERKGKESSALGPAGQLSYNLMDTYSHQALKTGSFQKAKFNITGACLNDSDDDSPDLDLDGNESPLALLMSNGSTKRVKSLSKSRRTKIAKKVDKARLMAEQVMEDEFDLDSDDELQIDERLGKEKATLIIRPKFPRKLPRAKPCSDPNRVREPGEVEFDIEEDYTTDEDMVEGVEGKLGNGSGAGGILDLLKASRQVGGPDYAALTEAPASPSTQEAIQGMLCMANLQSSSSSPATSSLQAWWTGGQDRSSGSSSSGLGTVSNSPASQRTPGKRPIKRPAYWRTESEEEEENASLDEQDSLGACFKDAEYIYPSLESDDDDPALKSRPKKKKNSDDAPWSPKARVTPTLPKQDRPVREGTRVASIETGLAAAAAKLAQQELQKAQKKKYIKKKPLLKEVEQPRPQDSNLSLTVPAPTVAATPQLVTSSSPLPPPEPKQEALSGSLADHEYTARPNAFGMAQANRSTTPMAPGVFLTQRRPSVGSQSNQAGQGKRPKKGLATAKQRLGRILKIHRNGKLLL

Compound: Cn1cnc(-c2cc(-c3c[nH]nn3)ccn2)c1 [Example 1, 2-(1-methylimidazol-4-yl)-4-(1H-triazol-4-yl)pyridine]
- IC50: 100 to 1000 nM
